Measured affinities in a library of Ab-14 light chain variants

Source: Li et al. 2023 (doi:10.1038/s41467-023-39022-2), MIT Lincoln Laboratory and A-Alpha Bio; data file from the FLAb repository.

Binding partner: SARS-CoV-2 spike HR2 peptide, sequence PDVDLGDISGINAS.

Parent: Ab-14, a human scFv built as VH, three GGGGS repeats, VL. Only the CDRs of the light chain vary.
VH: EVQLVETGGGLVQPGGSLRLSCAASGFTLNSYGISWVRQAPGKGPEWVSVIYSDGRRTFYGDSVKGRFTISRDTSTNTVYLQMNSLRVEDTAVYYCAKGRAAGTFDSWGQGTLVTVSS
VL: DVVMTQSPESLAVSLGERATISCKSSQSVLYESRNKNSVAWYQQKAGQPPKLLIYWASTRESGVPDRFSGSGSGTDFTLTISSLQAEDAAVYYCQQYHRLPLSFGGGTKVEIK

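This is the validation round: designs drawn from the data on random variants, tested in the same kind of assay. Several design methods are mixed in this list. The scFvs were displayed on barcoded MATa yeast, the peptide on MATalpha yeast. The frequency of each diploid, read from paired DNA barcodes, reflects how well the two displayed proteins bind. The ratio of observed to expected reads was calibrated, replicate by replicate, on BCL2-family standards whose Kd was known from biolayer interferometry. Mating was done six times.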

The parent's light chain CDRs are KSSQSVLYESRNKNSVA, WASTRES, QQYHRLPLS; each variant's own CDRs replace them letter for letter. Numbers give log10(Kd / nM), so 0 is 1 nM and 3 is 1 µM. Smaller is tighter. Averages over replicates are reported, and they cover detected replicates only. Where no diploid with the target was found in any replicate, the entry reads "nd": below detection, most likely a poor binder, though not proof of it.

CDR-L1 | CDR-L2 | CDR-L3 | mean log10 Kd (nM) | detected
KLSQQWLYESRNKNSVA | NASQRLS | QCYHRLPLS | 0.27 | 6/6
KISQLVNFLGKEKNSVA | QMSTREE | QQYDRLPLS | 0.81 | 6/6
KLSQSFLYESRNKNNVA | GASTRES | QQYHRLTLS | nd | 0/6
KLQQSELGESRNMNSVA | HASTRES | QDYHRLPLS | 0.62 | 6/6
KLSATYRYESQNKNSIA | EMTTRMS | QCYHRLPLS | 1.94 | 1/6
LVSQQELYEQRNKNSVA | SASQRLS | QQYHRLPLS | 0.54 | 6/6
RLTEHYFMRADQNHAVA | DASTRND | QQYHRLPLW | 0.29 | 6/6
KSGFGVLYESRNKNHVA | GASTRES | QQYHRLPLS | 0.80 | 6/6
MMSQVMGSGQRHRNNVA | QTSMREP | QQYDRLPLI | 1.58 | 6/6
KSGQSWLYESRNKNSVA | GASTRES | QQYHRLPLS | -0.34 | 6/6
TLGQSTMVESYNKNSVA | QASTRCE | QDYHRLPLS | 2.47 | 6/6
KLSQSEPYESRNKNSVA | NASTRES | QQYHRLPLS | 0.30 | 6/6
HISPSFMVESKLRNSVA | QTETRVQ | QQYDRLPLS | 0.22 | 6/6
KIPQSVLYESRNKNSVA | WASTRES | QQYHRLPLS | 0.93 | 6/6
KMQQSEGMESRNVNSVA | HASLRLE | QQYHRLPLS | 0.57 | 6/6
SLMQVGGYESNEHNSIA | DLRTRES | QQYHRLPLS | 0.92 | 6/6
HFDQTEQEGIQDKNSVA | QGSQVGS | QHYSKLPLS | nd | 0/6
KVSMLGLYGQRNKGSVA | EASTRED | QQYHRLPLS | 0.57 | 6/6
KSSQSVLHESRNKNGVA | WADTRES | QQYHRLPLS | 2.02 | 3/6
KMSQAFLYESRNKNSVA | DANTRES | QQYHRLPLS | 0.34 | 6/6
KSHQSVLYENRNKNSVA | WASTRES | QQYHRLPLS | 1.86 | 1/6
KVQQSQLYESRMKNSVA | NASTRES | QQYHRLPLS | 0.23 | 6/6
TIGQVMNWESRNKNSVA | QTSTREE | QDYDRLPLS | 1.72 | 1/6
KISQSALVEDRNKNSVA | WASTRES | QQYHDLSLS | nd | 0/6
KSSQSVLYESRNSNQVA | EASTREC | QQVHRLPLS | 1.19 | 6/6
KLSQSTEYESRMKNSVA | NASLREQ | QQYHRLPLS | 0.33 | 6/6
KSSGSQLYEDRNKNSVA | SASQRES | QQYHRLPLS | 0.74 | 6/6
YLSQSQLYESRNKNSVA | NASTRES | QQYHRLPLS | 0.13 | 6/6
KVSPSVLYESRNKNSVA | EASTREQ | QQYHRLPLS | 0.03 | 6/6
NSSQSALYESRNKNSVA | GGNTRES | QQYHRLPLS | 0.06 | 6/6
KISMGIEMNTRQNHNMA | EASLKPS | QQYNRLPFF | -0.07 | 6/6
KMSLSVLFESRNKNSVA | NASTRES | QQYHRLPLS | 0.41 | 6/6
KSSQSVLYEERNKNSVA | MASMRES | QQYHRLPLS | 1.81 | 6/6
MISNVMNTLTREGNNVA | DLQNREK | QQYFRLPLS | nd | 0/6
TLYMGPTEARDSKHAIA | NMNERDY | QQYHRLPLV | 0.47 | 6/6
KLSQSDLYESRNKNSVA | SASQRES | QQYHRLPLS | -0.25 | 6/6
HISQMWMLESKNKNNVA | EENTRED | QSYFRLPLS | 0.91 | 6/6
HMSMLTLQGLRHRNSVA | QMTTREN | QQYDRLPLS | 0.75 | 6/6
KLQQSWLYESRNKNSVA | HASTRES | QQYHRLPLS | 0.07 | 6/6
KLSQSVLYESRNKNNVA | DASTRES | QQYHRLPLS | -0.61 | 6/6
KSSRSVLEESRNKNSVA | WASTRES | QQYHRLPLS | 1.50 | 6/6
KLLQSQEYESRNKNSVA | HASTRED | QQYHRLPLS | 0.23 | 6/6
KSSQSVLYESRNKNSVA | WASTRES | QLYHRLPLS | 1.37 | 1/6
KSSQSNEYENRNKNSVA | EASTRES | QQYWRLPLS | -0.05 | 6/6
KFSQSMLYESRVKNNVA | DASQRES | QMYHRLPLS | 0.72 | 6/6
KIAEQIMHVYIGANAIA | DATVRSA | QQYLRLPLM | 1.72 | 5/6
KLSQSVLMESRNCNSVA | NASTRES | QQYHRLPLS | -0.06 | 6/6
MISQLYNMGSFAINSVA | QAELRND | QQYDRLPLT | 2.25 | 6/6
MISQIYNMGQFAINSVA | QASIRNA | QQYDRLPLA | 0.67 | 6/6
KPSQSVLDESRNKNSVA | WASTRES | QQSGRLPLF | nd | 0/6
KVSQSVLYESRNKNNVA | EASQRES | QQYHRLPLS | -0.55 | 6/6
KSSQSHLYESRNKNSVA | WASTRES | QQIHRLPLS | 2.29 | 1/6
KSSQSVLYESRNKNSVA | WASTRES | QQLHRLPIS | nd | 0/6
KLYQSELYESRNKNSVA | NASTRES | QQYHRLPLS | -0.23 | 6/6
IVSQLMLWGHSAKNSIA | EAVTRYN | QQYDRLPLF | 0.37 | 6/6
KVSQSWEYEDRNKNSVA | QASQRCS | QQYHRLPLS | -0.02 | 6/6
ALNAHRLVAIEAKNSIA | NAVMRED | QQYAQLPLM | 0.66 | 6/6
KSSQSVLDQSENKNSVA | DCSTRES | QQYHRLPLS | 0.84 | 6/6
KFSQWVLYESRDKNSVA | NASTRES | QQYHRLPLS | 0.19 | 6/6
NLYMDAAEFVMMGESIA | DATISYQ | QQYHRLPLT | 1.31 | 6/6
KSSQSVLYESRNDNSVA | KASTRES | QQYIRLPLS | 0.63 | 6/6
KLQQLGLYEQRNKNSVA | SASTRCS | QQYHRLPLS | -0.02 | 6/6
TISQSAMQESHNKNSVA | DLSVRGS | QQYDRLPLS | nd | 0/6
KLSGIMRVESKQTSAIA | EVNERSE | QQYDRLPLS | 1.02 | 6/6
KVSQSVLYEDRNKNSVA | NGSTRES | QQYHRLPLS | 0.41 | 6/6
KSSQSVLDESRNKNSVA | WASTREE | VQYHHYPLS | 0.88 | 5/6
KSSQSVLYESRNKNIVA | WASTRRG | QQYHRLPLS | 2.62 | 3/6
KLSQSVLYESRNKNSVA | NASTREP | QQYIRLPLS | -0.34 | 6/6
KVSTSVLYESRNKNSVA | DASTRES | QQYHRLPLS | -0.33 | 6/6
QSSQSVWYESRNKNSVA | WASTRES | QQYLGLPLS | nd | 0/6
QLSMLEQNGGRSYSSVA | DDDVRMA | QQYHRLPLS | 0.95 | 6/6
KLSQSDLYESRMKNSVA | GASTRES | QQYHRLPLS | 0.06 | 6/6
KIGLVTNGISFSTSSVA | EQSTREN | QQYDRLPLS | 0.76 | 6/6
KQSQSVLMESRNKNSVA | QASTRES | QQYHRLPLS | 0.22 | 6/6
MISQLWNMGTFAINSVA | QASIRNA | QQYDRLPLI | 0.55 | 6/6
KVSQSVLYESRNKNAVA | NASQRES | QQYHRLPLS | -0.47 | 6/6
HISMSMNWLSRNKDSIA | EESTRED | QQYHRLPLS | 0.04 | 6/6

From the list, the first 8 with no signal in any replicate:

{"CDR-L1": "KLSQSFLYESRNKNNVA", "CDR-L2": "GASTRES", "CDR-L3": "QQYHRLTLS", "mean log10 Kd (nM)": "nd", "detected": "0/6"}
{"CDR-L1": "HFDQTEQEGIQDKNSVA", "CDR-L2": "QGSQVGS", "CDR-L3": "QHYSKLPLS", "mean log10 Kd (nM)": "nd", "detected": "0/6"}
{"CDR-L1": "KISQSALVEDRNKNSVA", "CDR-L2": "WASTRES", "CDR-L3": "QQYHDLSLS", "mean log10 Kd (nM)": "nd", "detected": "0/6"}
{"CDR-L1": "MISNVMNTLTREGNNVA", "CDR-L2": "DLQNREK", "CDR-L3": "QQYFRLPLS", "mean log10 Kd (nM)": "nd", "detected": "0/6"}
{"CDR-L1": "KPSQSVLDESRNKNSVA", "CDR-L2": "WASTRES", "CDR-L3": "QQSGRLPLF", "mean log10 Kd (nM)": "nd", "detected": "0/6"}
{"CDR-L1": "KSSQSVLYESRNKNSVA", "CDR-L2": "WASTRES", "CDR-L3": "QQLHRLPIS", "mean log10 Kd (nM)": "nd", "detected": "0/6"}
{"CDR-L1": "TISQSAMQESHNKNSVA", "CDR-L2": "DLSVRGS", "CDR-L3": "QQYDRLPLS", "mean log10 Kd (nM)": "nd", "detected": "0/6"}
{"CDR-L1": "QSSQSVWYESRNKNSVA", "CDR-L2": "WASTRES", "CDR-L3": "QQYLGLPLS", "mean log10 Kd (nM)": "nd", "detected": "0/6"}

As a blank, each scFv also met three strains without target: over all light chain designs, 4% of these pairings were detected, typically at 2.64 and seldom below 1.59. A sequence measured in both rounds can read differently, since the two assays cover different ranges. The authors averaged sequences with at least three values out of six and counted those with two or fewer as poor binders. The parent sequence was in this pool as ten entries: three were never detected, three once, and four in most replicates, with averages from 0.34 to 2.37.